Values quoted from earlier work, collected in patent US11390616B2 (BRISTOL-MYERS SQUIBB COMPANY, priority 2015, dated 2022).

Conditions: estimated; Japp et al. 2010; cited from earlier work

Substance: Apelin
- half life in circulation: less than 5 minutes
